# Source: US12624038B2, “Molecules and methods related to treatment of uncontrolled cellular proliferation” (ST. JUDE CHILDREN'S RESEARCH HOSPITAL, priority 2019, dated 2026)
# The chains behind the UniProt entries cited, without tags or fusion partners. Where a name states a change or a piece, a line headed by the entry shows the natural chain unless it says otherwise.
# UniProt O60674: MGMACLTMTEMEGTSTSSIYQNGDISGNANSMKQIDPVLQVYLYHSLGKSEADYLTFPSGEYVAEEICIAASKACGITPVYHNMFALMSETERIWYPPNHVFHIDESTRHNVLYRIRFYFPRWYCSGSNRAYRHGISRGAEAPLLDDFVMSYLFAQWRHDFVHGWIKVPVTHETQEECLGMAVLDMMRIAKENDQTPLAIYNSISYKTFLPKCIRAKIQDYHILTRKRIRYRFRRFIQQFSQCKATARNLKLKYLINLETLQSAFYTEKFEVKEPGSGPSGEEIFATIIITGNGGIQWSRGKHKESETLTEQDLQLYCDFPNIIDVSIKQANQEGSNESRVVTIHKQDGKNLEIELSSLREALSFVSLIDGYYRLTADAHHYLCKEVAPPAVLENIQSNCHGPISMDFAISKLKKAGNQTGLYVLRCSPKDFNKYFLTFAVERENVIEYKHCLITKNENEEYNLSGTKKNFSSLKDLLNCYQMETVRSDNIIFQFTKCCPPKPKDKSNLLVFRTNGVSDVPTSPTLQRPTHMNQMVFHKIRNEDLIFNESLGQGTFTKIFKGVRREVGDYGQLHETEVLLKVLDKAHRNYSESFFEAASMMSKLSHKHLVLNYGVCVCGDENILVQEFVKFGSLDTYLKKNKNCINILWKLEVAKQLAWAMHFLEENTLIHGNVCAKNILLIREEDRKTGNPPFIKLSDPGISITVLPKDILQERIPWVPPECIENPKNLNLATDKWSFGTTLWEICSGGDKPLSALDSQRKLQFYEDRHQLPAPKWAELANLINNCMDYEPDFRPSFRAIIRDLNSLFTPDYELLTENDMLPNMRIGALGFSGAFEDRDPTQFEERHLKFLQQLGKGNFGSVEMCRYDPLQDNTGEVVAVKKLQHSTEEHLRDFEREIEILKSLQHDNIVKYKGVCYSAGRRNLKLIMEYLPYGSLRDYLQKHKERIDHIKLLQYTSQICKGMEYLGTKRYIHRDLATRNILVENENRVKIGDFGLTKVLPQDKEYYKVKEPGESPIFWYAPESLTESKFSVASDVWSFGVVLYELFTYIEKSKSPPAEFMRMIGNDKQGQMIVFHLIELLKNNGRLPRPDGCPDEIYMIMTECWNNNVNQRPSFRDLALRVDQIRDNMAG
# Molecular target: T1, JAK2 (Homo sapiens, UniProt O60674)
# T1 construct: purchased Eurofins DiscoveRx
# Test: KdELECT Kd measurement (KINOMEscan platform), JAK2
# Type: binding
# Conditions: Kd to JAK family kinases
compound,measurement,value
CCS(=O)(=O)N1CC(CC#N)(n2cc(-c3nc(Nc4ccc(C(=O)NCCCCNc5cccc6c5C(=O)N(C5CCC(=O)NC5=O)C6=O)cc4)nc4[nH]ccc34)cn2)C1 (stereo not shown) [Compound 6],Kd,0.11 nM
